Data published in patent US20210403485A1, “PYRAZOLOPYRIMIDINE DERIVATIVE AS SELECTIVE TRK INHIBITOR” (SHANDONG LUYE PHARMACEUTICAL CO., LTD., priority 2018, published 2021).

By UniProt entry, the sequences of proteins in these tests, tags left out. Residues count along the entry.
UniProt P08922, 28-2347: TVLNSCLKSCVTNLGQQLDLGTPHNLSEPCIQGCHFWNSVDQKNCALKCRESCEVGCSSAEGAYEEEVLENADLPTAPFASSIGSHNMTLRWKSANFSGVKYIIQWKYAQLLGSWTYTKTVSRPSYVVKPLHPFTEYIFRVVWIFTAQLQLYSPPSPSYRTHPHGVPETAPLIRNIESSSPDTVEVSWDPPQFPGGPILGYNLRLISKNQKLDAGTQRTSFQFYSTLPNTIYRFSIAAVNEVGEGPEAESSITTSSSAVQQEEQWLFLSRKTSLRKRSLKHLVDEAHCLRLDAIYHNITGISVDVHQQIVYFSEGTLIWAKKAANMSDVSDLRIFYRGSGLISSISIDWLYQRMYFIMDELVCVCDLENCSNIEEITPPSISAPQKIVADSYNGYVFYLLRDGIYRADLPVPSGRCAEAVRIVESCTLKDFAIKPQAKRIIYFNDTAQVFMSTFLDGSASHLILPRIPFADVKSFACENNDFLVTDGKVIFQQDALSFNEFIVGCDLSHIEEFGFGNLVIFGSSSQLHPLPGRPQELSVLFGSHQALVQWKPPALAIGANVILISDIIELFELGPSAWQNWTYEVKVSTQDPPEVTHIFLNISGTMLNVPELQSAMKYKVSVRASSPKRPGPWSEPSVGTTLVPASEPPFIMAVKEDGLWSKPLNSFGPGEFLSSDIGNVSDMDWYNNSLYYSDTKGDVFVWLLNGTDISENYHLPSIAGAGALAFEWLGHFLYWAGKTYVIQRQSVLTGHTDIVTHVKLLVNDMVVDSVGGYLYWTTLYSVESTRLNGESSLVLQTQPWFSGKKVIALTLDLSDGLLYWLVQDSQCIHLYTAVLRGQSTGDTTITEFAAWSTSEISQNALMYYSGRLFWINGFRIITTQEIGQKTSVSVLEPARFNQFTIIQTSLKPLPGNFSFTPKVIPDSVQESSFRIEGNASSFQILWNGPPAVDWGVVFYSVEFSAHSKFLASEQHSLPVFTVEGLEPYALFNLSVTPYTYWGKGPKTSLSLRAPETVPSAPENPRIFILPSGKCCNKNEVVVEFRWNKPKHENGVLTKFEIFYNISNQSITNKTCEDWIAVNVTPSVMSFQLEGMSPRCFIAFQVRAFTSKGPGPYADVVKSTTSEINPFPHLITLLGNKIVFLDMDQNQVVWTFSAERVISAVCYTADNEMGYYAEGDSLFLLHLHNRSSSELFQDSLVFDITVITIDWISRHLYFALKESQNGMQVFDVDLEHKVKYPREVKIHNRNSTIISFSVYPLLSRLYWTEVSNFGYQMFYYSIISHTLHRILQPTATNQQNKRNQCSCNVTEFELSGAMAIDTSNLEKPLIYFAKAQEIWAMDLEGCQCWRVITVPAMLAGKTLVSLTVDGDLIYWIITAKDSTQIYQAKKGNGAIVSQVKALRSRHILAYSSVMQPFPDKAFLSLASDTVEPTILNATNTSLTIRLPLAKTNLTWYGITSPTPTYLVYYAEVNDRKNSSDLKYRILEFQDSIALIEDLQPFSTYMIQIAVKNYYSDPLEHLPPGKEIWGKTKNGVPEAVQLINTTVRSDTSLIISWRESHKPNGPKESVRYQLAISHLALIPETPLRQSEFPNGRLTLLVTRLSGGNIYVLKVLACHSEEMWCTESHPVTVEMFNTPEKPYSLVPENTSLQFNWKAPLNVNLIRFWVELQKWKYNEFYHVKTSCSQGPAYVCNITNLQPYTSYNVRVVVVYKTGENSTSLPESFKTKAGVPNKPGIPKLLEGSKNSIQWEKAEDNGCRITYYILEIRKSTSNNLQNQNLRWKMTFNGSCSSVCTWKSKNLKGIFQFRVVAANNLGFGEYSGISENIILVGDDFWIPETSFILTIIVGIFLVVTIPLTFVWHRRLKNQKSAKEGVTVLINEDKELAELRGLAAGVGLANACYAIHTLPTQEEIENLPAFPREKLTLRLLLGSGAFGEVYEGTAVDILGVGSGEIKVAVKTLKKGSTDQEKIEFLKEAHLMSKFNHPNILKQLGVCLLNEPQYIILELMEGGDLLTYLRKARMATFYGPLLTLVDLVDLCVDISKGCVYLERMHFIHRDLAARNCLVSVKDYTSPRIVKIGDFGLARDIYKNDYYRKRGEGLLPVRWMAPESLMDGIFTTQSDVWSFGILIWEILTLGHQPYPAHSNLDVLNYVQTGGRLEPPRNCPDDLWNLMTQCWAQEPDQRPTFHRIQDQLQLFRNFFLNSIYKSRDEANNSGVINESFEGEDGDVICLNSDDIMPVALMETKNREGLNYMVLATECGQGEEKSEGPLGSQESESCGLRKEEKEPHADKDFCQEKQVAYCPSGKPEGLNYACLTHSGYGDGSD
UniProt P04629, 33-796 G667C: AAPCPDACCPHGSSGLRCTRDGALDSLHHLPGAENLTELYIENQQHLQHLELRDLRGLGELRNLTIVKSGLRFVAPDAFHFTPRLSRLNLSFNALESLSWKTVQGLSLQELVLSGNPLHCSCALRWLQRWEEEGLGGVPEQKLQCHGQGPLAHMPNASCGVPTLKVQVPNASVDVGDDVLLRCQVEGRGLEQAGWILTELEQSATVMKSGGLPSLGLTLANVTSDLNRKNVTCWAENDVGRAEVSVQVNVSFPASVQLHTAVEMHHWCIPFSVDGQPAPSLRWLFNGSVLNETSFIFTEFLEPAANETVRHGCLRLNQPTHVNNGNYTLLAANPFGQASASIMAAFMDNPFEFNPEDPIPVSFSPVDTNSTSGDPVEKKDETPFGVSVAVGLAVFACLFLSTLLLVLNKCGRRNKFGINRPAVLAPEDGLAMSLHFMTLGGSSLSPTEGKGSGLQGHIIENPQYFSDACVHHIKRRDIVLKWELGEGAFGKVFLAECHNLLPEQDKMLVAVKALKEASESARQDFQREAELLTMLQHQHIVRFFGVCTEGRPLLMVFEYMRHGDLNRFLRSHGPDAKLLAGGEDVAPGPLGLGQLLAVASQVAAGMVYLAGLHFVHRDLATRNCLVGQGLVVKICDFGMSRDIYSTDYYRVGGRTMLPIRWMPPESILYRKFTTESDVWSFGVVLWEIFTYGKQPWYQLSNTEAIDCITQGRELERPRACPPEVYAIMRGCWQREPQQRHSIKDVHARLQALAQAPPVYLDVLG
UniProt P04629, whole entry G667A: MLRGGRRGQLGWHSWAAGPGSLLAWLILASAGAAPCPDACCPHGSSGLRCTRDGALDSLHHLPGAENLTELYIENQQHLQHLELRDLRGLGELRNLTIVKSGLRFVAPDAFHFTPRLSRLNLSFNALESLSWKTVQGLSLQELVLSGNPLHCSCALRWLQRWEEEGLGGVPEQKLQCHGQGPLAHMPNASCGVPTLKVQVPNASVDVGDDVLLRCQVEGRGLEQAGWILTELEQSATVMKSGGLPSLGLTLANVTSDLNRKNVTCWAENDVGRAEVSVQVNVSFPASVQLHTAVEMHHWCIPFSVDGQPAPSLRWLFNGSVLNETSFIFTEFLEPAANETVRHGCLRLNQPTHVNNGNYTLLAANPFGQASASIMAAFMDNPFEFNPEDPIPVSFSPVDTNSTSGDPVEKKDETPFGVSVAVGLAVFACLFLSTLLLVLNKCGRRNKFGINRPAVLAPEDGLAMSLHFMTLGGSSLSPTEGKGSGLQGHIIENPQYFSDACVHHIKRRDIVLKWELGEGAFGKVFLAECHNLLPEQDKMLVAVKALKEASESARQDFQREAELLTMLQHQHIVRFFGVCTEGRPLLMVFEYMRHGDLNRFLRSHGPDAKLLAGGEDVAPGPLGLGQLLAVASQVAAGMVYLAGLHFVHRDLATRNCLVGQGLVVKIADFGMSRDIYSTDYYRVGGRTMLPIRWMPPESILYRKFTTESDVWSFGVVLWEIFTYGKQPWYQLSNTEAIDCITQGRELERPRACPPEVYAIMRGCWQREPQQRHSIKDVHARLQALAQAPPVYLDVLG
UniProt P04629, 33-796: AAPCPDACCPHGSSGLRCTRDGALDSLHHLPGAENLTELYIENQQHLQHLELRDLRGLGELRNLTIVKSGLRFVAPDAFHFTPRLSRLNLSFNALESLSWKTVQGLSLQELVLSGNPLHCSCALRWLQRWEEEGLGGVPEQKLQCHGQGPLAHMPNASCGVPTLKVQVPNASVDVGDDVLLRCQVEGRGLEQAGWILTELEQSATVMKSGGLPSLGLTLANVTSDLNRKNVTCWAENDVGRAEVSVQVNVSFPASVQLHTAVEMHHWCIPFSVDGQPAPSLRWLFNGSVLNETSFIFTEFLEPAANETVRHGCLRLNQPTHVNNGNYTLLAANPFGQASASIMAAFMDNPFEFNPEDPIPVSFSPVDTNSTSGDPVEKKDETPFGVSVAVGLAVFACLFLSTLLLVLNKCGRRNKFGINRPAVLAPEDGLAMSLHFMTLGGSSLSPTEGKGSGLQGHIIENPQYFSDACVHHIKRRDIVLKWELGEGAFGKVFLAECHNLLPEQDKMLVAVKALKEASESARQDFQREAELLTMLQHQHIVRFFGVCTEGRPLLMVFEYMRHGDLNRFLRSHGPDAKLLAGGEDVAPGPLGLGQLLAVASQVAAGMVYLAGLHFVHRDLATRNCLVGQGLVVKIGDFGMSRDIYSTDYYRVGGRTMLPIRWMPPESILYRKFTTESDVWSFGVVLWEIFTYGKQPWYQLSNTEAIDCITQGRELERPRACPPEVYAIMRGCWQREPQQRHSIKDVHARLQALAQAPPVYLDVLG
UniProt P04629, 33-796 G595R: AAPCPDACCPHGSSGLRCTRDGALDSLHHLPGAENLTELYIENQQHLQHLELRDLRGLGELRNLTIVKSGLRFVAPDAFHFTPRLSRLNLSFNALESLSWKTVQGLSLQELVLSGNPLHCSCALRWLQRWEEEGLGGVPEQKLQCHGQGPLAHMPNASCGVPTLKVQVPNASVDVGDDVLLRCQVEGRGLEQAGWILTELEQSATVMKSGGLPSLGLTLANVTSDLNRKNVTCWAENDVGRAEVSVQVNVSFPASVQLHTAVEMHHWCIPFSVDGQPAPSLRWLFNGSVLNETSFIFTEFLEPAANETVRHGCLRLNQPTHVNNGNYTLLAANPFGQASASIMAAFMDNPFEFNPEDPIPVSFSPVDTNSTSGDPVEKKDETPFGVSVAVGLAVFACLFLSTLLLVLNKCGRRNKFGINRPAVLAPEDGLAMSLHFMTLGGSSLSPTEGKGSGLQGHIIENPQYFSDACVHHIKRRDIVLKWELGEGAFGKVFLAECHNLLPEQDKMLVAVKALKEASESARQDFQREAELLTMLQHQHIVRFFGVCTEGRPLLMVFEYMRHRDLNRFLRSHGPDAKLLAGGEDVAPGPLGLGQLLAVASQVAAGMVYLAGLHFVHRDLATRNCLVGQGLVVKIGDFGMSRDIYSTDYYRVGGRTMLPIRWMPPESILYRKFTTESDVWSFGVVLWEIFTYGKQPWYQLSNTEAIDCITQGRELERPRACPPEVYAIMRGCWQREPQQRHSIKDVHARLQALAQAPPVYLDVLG

What was measured:
[1] = target: T1, Ros1 (Homo sapiens, UniProt P08922); test: Kinase inhibitory activity (33P-ATP, filtration-binding method, Reaction Biology Corp.); format: biochemical; conditions: read-out: Half maximal inhibitory concentration IC50 for kinases, Ros1
T1 construct: purchased Reaction Biology Corp

[2] = target: T2, TrkA-G667C (Homo sapiens, UniProt P04629, G667C); test: as above; format: biochemical; conditions: read-out: Half maximal inhibitory concentration IC50 for kinases, TrkA-G667C
T2 construct: purchased Reaction Biology Corp

[3] = target: T3, Ba/F3 SLC34A2-ROS1-WT (Homo sapiens, UniProt P08922); test: Inhibitory activity against cell proliferation (CellTiter-Glo, 72 hours); format: cell-based; conditions: read-out: Half maximal inhibitory concentration IC50 of cells, Ba/F3 SLC34A2-ROS1-WT
T3 construct: fused on or other part: N-terminal part of SLC34A2 as fusion partner (part of the key); O95436 (Sodium-dependent phosphate transport protein 2B)
Procedure: (§1) Adenosine Triphosphate (ATP) is an energy carrier commonly used in various life activities in nature, and is the minimum unit for energy storage and transfer. The CellTiter-Glo™ cell viability assay kit uses luciferase as an assay agent, which requires the involvement of ATP in luminescence. The CellTiter-Glo™ reagent is added into cell culture medium to measure the luminescence value. The luminescence signal is directly proportional to the amount of ATP in the system, and the ATP is positively correlated with the number of viable cells. Therefore, the proliferation of cells can be detected by detecting the ATP content using the CellTiter-Glo kit. In this test, the cell lines used are Ba/F3 LMNA-NTRK1-WT, Ba/F3 LMNA-NTRK1-F589L, BaF3 LMNA-NTRK1-G595R, BaF3 LMNA-NTRK1-G667A, BaF3 ETV6-NTRK3-WT, BaF3 ETV6-NTRK3-G623R, and Ba/F3 SLC34A2-ROS1-WT stable cell strains, 5000 cells/well.
(§2) a) Cells in the logarithmic growth phase were collected and counted using a […]. The cell viability was detected by the trypan blue exclusion method, and the cell viability was kept over 90%. […]
(§3) d) The cell plate was placed at room temperature for 20 minutes to stabilize the luminescence signal.
(§4) e) The luminescence value was read.
(§5) The data were analyzed using GraphPad Prism 5.0 software, fitted with nonlinear S-curve regression to give dose-response curves, and IC50 values were calculated therefrom.

[4] = target: T4, BaF3 LMNA-NTRK1-G667A (Homo sapiens, UniProt P04629, G667A, cells depend on it); test: as above; format: cell-based; conditions: read-out: Half maximal inhibitory concentration IC50 of cells, BaF3 LMNA-NTRK1-G667A
T4 construct: fused on or other part: N-terminal part of LMNA as fusion partner (part of the key); P02545 (Prelamin-A/C)
Procedure: as §1, §2, §3, §4, §5

[5] = target: T5, TrkA (Homo sapiens, UniProt P04629); test: Kinase inhibitory activity (33P-ATP, filtration-binding method, Reaction Biology Corp.); format: biochemical; conditions: read-out: Half maximal inhibitory concentration IC50 for kinases, TrkA
T5 construct: purchased Reaction Biology Corp

[6] = target: T6, ALK (Homo sapiens, UniProt Q9UM73); test: as above; format: biochemical; conditions: read-out: Half maximal inhibitory concentration IC50 for kinases, ALK
T6 construct: purchased Reaction Biology Corp

[7] = target: T7, TrkA-G595R (Homo sapiens, UniProt P04629, G595R); test: as above; format: biochemical; conditions: read-out: Half maximal inhibitory concentration IC50 for kinases, TrkA-G595R
T7 construct: purchased Reaction Biology Corp

Row | pIC50 [2] | GI50 [3] [nM] | GI50 [4] [nM] | pIC50 [5] | pIC50 [6] | pIC50 [7] | SMILES | pIC50 [1]
1 | – | – | – | – | – | – | C[C@@H]1CCc2ncc(F)cc2[C@H]2CCCN2c2ccn3ncc(c3n2)C(=O)N1 [LOXO-195, reference compound] | 8.94
2 | 8.77 | 51.4 | 1.2 | 8.31 | 7.05 | 8.03 | O=C1NC2(CC2)COc2ncc(F)cc2[C@H]2CNCCN2c2ccn3ncc1c3n2 [WX003B] | 8.92
3 | – | – | – | 6.18 | – | – | O=C1NC2(CC2)COc2ncc(F)cc2C2CNCCN2c2ccn3ncc1c3n2 (stereo not drawn) [WX003A] | –

pIC50: −log10 of the molar value.
